Source: the Kinase Knowledgebase extract (Sharma et al. 2016)

Protein sequences, listed by entry. Tags and fused reporters are not part of them. Lines headed by an entry give the natural chain unless they say otherwise; changes in a name come on top.
UniProt O00329: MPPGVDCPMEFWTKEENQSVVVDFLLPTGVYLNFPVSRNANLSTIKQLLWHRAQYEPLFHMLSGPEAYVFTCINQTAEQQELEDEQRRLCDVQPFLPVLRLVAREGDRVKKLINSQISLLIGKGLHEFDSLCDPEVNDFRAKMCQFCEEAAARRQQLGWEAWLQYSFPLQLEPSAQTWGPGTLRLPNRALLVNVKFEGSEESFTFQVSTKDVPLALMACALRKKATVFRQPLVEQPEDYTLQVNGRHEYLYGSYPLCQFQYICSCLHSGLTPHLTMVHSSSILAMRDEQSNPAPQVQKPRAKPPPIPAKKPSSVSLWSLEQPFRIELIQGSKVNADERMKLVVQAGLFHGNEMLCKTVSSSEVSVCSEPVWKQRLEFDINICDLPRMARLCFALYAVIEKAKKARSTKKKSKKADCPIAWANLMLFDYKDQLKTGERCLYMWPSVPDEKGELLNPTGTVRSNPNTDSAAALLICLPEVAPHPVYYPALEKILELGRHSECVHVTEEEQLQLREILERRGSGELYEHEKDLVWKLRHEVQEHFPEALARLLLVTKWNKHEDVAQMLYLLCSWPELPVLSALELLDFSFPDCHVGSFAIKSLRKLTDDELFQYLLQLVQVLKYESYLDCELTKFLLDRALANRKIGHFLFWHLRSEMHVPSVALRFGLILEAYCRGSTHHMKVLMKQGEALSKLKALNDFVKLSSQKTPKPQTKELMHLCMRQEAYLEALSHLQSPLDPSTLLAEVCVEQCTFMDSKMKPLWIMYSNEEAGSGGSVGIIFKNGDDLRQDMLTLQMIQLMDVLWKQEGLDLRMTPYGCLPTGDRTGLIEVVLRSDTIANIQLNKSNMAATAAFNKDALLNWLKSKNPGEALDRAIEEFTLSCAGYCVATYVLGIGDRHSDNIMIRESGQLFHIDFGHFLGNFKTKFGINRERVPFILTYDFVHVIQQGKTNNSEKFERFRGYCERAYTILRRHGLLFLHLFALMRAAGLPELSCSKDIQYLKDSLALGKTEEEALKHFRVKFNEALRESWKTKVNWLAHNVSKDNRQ

Biological target: PIK3CD (Human) (UniProt O00329)
Assay: Inhibition of PIK3CD Kinase Activity in Pfeiffer Cells

Cc1csc2nc(C(C)Nc3ncnc4[nH]cnc34)c(-c3cccc(F)c3)c(=O)n12 (stereo unspecified)
IC50: < 50 nM
